Where two headings read alike, the source gives them in different places. Bounds are passed on as bounds.

As a reminder, the IC50 is the midpoint of a concentration-inhibition curve.

The target of assay [1] is T1, ferroportin (Homo sapiens, UniProt Q9NP59).
T1 sequence (Q9NP59 1-571): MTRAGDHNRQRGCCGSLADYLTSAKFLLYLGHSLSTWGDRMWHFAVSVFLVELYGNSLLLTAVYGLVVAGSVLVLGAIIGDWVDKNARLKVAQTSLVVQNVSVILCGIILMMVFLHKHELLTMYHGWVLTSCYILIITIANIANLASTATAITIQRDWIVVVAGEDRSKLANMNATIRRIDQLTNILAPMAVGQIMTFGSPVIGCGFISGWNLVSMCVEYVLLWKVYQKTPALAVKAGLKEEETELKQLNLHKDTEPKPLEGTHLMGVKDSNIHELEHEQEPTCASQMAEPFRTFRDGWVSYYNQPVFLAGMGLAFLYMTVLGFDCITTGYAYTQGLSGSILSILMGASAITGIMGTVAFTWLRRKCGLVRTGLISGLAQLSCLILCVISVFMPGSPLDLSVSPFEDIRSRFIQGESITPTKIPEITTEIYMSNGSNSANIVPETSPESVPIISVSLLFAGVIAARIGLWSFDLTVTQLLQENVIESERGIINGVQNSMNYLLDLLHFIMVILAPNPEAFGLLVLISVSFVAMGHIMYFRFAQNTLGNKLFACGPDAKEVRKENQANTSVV
The experiment in a line: T47D cell-based ferroportin internalization assay in presence of mouse serum albumin (MSA). Details: a human breast carcinoma adherent cell line which endogenously expresses ferroportin; host or cells: T47D. The conditions noted are these: Table 6D; T47D internalization assay with MSA. As for the experimental part: The potency of the peptides in causing ferroportin internalization was evaluated in a T47D cell-based assay. […] In this internalization assay, the potency of the test peptides was evaluated in presence of serum albumin which is the main protein component in the blood. T47D cells were maintained in RPMI media (containing required amount of fetal bovine serum) and regularly sub-cultured. In preparation for the assay, the cells were seeded in 96-well plates at a density of 80-100 k cells per well in 100 ul volume and allowed to rest overnight. […] Sigma, A3139). The test peptide dilution series were allowed to incubate at room temperature for 30 min. Then the media was aspirated from the 96-well cell plate and test peptide dilution series were added. […] The AF647-conjugated detection peptide was previously verified to bind to ferroportin and cause its internalization. The cells were washed again after a 2 hr incubation in preparation for flow cytometry analysis. The Median Fluorescence Intensity (MFI) of the AF647-positive population was measured (after removing dead cells and non-singlets from the analysis). The MFI values were used to generate a dose-response curve and obtain IC50 potencies for the test peptides.

The target in assay [2] is T1, ferroportin. Nature of the assay: FPN activity assay: ferroportin-GFP internalization/degradation in HEK293 cells. The class given is cell-based. Also on record: expressed in transfected cells.
Setting [3] is: Table 6D, at least 18 hours incubation, read-out: FPN IC50.

Consider `CCCCCCCCCCCCCCCC(=O)NCCCCCC(=O)NCCCC[C@H](NC(=O)[C@H]1CSSC[C@H](NC(=O)[C@H](CCC(=O)O)NC(=O)CC(C)C)C(=O)N[C@@H](Cc2c[nH]cn2)C(=O)N[C@@H](C(c2ccccc2)c2ccccc2)C(=O)N1)C(=O)N[C@H](C(N)=O)C(c1ccccc1)c1ccccc1` [compound 128], for which the IC50 in assay [1] lay within 100 to 500 nM. Further, in assay [2] (setting [3]), the DC50 fell in the range of 10 to 100 nM.

Regarding `CCCCCCCCCCCCCCCC(=O)NCC[N+](C)(C)CC(=O)NCCOCCOCC(=O)NCCOCCOCC(=O)NCCCC[C@H](NC(=O)[C@@H]1CSSC[C@H](NC(=O)[C@H](CCC(=O)O)NC(=O)CC(C)C)C(=O)N[C@@H](Cc2cnc[nH]2)C(=O)N[C@@H](C(c2ccccc2)c2ccccc2)C(=O)N1)C(=O)NCCCCc1ccccc1` [compound 122], in assay [2] (setting [3]), the DC50 was in the range of 1 to 10 nM.

For `CCCCCCCCCCCCCCCC(=O)N[C@@H](CN)C(=O)NCCOCCOCC(=O)NCCOCCOCC(=O)NCCCC[C@H](NC(=O)[C@@H]1C[C@@H]2CN1C(=O)[C@H](C(c1ccccc1)c1ccccc1)NC(=O)[C@H](Cc1cnc[nH]1)NC(=O)[C@@H]1C[C@@H](CN1C(=O)[C@H](CCC(=O)O)NC(=O)CC(C)C)SS2)C(=O)NCCCCc1ccccc1` [compound 127], the concentration for half-maximal inhibition (IC50) in assay [1] was in the range of 1 to 10 nM. Moreover, the DC50 in assay [2] (setting [3]) was 10 to 100 nM.

`CCCCCCCCCCCCCCCC(=O)NCCCCCC(=O)NCCCC[C@H](NC(=O)[C@@H]1CSSC[C@H](NC(=O)[C@H](CCC(=O)O)NC(=O)CC(C)C)C(=O)N[C@@H](Cc2c[nH]cn2)C(=O)N[C@@H](C(c2ccccc2)c2ccccc2)C(=O)N1)C(=O)N[C@H](C(N)=O)C(c1ccccc1)c1ccccc1` [compound 129]: in assay [1], the IC50 was greater than 500 nM.

Turning to `CCCCCCCCCCCCCCCC(=O)NCC[N+](C)(C)CC(=O)NCCCCCC(=O)NCCCC[C@H](NC(=O)[C@@H]1C[C@H]2CN1C(=O)[C@H](C(c1ccccc1)c1ccccc1)NC(=O)[C@H](Cc1c[nH]cn1)NC(=O)[C@@H](NC(=O)[C@H](CCC(=O)O)NC(=O)CC(C)C)CSS2)C(=O)NCCCCc1ccccc1` [compound 125], the DC50 in assay [2] (setting [3]) lay in the range of 10 to 100 nM.

For the compound `CCCCCCCCCCCCCCCC(=O)NCC[N+](C)(C)CC(=O)NCCOCCOCC(=O)NCCOCCOCC(=O)NCCCC[C@H](NC(=O)[C@@H]1CSSC[C@H](NC(=O)[C@H](CCC(=O)O)NC(=O)CC(C)C)C(=O)N[C@@H](Cc2c[nH]cn2)C(=O)N[C@@H](C(c2ccccc2)c2ccccc2)C(=O)N1)C(=O)NCC(c1ccccc1)c1ccccc1` [compound 121], the DC50 in assay [2] (read-out: FPN IC50, Table 6D, at least 18 hours incubation) fell in the range of 10 to 100 nM.

Values taken from patent publication US20250277012A1 (Protagonist Therapeutics, Inc., priority 2021, published 2025).
